Experiments:
CDK6/CyclinD3 = CDK6/CyclinD3 (Homo sapiens, UniProt Q00534); test: Assay for inhibition of CDK6/CyclinD3 (Caliper microfluidic kinase assay); type: biochemical; conditions: read-out: CDK6 IC50; CDK6/CyclinD3, 300 μM ATP
Method: (§1) The CDK6 enzyme assay for IC50 determination was performed as follows. Microfluidic kinase detection technology (Caliper) was used to monitor the phosphorylation of peptide substrate by CDK6/CyclinD3. The total reaction volume is 15 μL containing buffer A (100 mM HEPES (pH 7.5), 0.1% BSA, 0.01% Triton X-100, 1 mM DTT, 10 mM MgCl2, 10 μM Sodium Orthovanadate, 10 μM Beta-Glycerophosphate), 300 μM ATP, 2 nM CDK6/CyclinD3 (Carna, 04-107), 1 μM FL-34 (5-FAM-RRRFRPASPLRGPPK), and the test compound at appropriate dilutions in DMSO. All components were added to the 384-well plate (Corning, 4514), and incubated at Room Temperature for 3 hours. The reaction was terminated by addition of 15 μL Stop Buffer (180 mM HEPES (pH 7.5), 20 mM EDTA, Coating-3 reagent (PerkinElmer, 760050)). The plate was then loaded on Caliper EZ Reader (EZ Reader II, PerkinElmer, HD-4HYSG2772), and the reaction mixtures including substrate and product were sipped into the microfluidic chip for separation and detection. The IC50 values of the test compound were determined by fitting the inhibition curves by 4 parameter sigmoidal dose-response model using the Xlfit5/GraphPad Prism 5 software.
(§2) The IC50 values are indicated as “A,” “B,” “C,” and “D,” for values less than or equal to 10 nM; less than or equal to 100 nM; less than or equal to 1 μM; and greater than 1 μM, respectively.

By UniProt entry, the sequences of proteins in these tests, tags left out.
UniProt Q00534, whole entry: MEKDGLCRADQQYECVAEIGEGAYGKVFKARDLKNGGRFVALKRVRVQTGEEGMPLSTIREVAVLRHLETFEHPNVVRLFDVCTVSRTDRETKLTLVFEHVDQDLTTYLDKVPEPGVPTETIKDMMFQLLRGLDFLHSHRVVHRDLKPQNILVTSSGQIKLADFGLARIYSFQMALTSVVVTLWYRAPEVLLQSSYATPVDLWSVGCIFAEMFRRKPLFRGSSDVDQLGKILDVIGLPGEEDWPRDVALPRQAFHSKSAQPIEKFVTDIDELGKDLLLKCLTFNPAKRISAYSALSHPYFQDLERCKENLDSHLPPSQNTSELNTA
UniProt P11802, whole entry: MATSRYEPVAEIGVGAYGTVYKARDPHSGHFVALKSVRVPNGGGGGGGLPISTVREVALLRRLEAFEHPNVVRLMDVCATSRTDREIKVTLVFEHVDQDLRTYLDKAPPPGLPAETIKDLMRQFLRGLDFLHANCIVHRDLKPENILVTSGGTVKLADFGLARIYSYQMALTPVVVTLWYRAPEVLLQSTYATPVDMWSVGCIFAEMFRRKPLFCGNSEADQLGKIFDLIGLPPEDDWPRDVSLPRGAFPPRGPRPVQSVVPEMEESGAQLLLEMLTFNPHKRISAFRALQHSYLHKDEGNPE
UniProt P30281, whole entry partner: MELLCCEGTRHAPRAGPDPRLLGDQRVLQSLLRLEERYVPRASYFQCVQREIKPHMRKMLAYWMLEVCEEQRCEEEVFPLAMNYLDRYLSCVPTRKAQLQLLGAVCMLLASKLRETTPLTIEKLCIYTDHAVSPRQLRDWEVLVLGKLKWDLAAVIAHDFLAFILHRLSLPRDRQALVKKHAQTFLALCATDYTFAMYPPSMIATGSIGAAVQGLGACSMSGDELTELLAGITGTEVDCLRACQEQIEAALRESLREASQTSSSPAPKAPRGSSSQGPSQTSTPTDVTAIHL
UniProt P24385, whole entry partner: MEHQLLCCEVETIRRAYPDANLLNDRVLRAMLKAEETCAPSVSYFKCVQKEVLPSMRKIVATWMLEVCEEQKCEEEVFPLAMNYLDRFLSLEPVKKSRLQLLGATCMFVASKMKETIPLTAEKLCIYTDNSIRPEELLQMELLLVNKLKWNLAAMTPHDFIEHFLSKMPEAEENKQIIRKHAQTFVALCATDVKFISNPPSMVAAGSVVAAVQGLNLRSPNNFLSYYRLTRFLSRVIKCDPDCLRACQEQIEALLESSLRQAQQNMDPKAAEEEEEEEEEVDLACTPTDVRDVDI

CDK2/CyclinE1 = CDK2/CyclinE1 (Homo sapiens, UniProt P24941); test: Assay for inhibition of CDK2/CyclinE1 (Caliper microfluidic kinase assay); type: biochemical; conditions: read-out: CDK2 IC50; CDK2/CyclinE1, 100 μM ATP
Method: The CDK2 enzyme assay for IC50 determination was performed as follows. Microfluidic kinase detection technology (Caliper) was used to monitor the phosphorylation of peptide substrate by CDK2/CyclinE1. The total reaction volume was 15 μL containing buffer A (100 mM HEPES (pH 7.5), 0.1% BSA, 0.01% Triton X-100, 1 mM DTT, 10 mM MgCl2, 10 μM Sodium Orthovanadate, 10 μM Beta-Glycerophosphate), 100 μM ATP, 5 nM CDK2/CyclinE1 (SignalChem, C29-18G), 5 μM FL-18 (5-FAM-QSPKKG-NH2), and the test compound at appropriate dilutions in DMSO. All components were added to the 384-well plate (Corning, 4514), and incubate at Room Temperature for 3 hours. The reaction was terminated by addition of 15 μL Stop Buffer (180 mM HEPES (pH 7.5), 20 mM EDTA, Coating-3 reagent (PerkinElmer, 760050)). The plate was loaded on Caliper EZ Reader (EZ Reader II, PerkinElmer, HD-4HYSG2772), and the reaction mixtures including substrate and product were sipped into the microfluidic chip for separation and detection. The IC50 values of the test compound were determined by fitting the inhibition curves by 4 parameter sigmoidal dose-response model using the Xlfit5/GraphPad Prism 5 software.
as §2

T47D breast cancer cells = test: Anti-proliferation assay in T47D cell (Cyquant, day 6); conditions: read-out: T47D IC50
Description: T47D is a human breast cancer cell line commonly used in biomedical research involving the hormonal expression of cancer cells. T47D cells are distinct from other human breast cancer cells in that their progesterone receptors (PR) are not regulated by estradiol, a hormone that is abundant within the cells themselves. T47D cells have been employed in studies of the effects of progesterone on breast cancer and the corresponding transcriptional regulation caused by introduced drugs. The cells have been noted to be extremely resistant to estrogens and antiestrogens.
T47D breast cancer cells from American Type Culture Collection (ATCC, HTB-133) were plated at 3000 cells/well in 96-well plates, and were incubated in RPMI 1640 medium (Gibco, 31800105) with 10% Fetal Bovine Serum (FBS, Biowest, FB-1058) at 37° C., 5% CO2. After overnight incubation, baseline values were measured of the samples from one plate using Cyquant reagent (Invitrogen, C35011) following manufacturer's recommendations. Cells were incubated with the detection reagent for 1 hour at 37° C., and then the fluorescence was measured with excitation at 485 nm and emission at 535 nm using Spectra Max M5 (Molecular Devices, HD-4HYSG3196). […] On day 6 after compound addition, Cyquant reagent was added and the fluorescence was measured using Spectra Max M5. […]

CDK4/CyclinD1 = CDK4/CyclinD1 (Homo sapiens, UniProt P11802); test: Assay for inhibition of CDK4/CyclinD1 (Caliper microfluidic kinase assay); type: biochemical; conditions: read-out: CDK4 IC50; CDK4/CyclinD1, 200 μM ATP
Method: as §1, with “The CDK4” for “The CDK6”, “by CDK4/CyclinD1.” for “by CDK6/CyclinD3.”, “volume was” for “volume is”, “Beta-Glycerophosphate), 200” for “Beta-Glycerophosphate), 300”, “ATP, 1” for “ATP, 2”, “nM CDK4/CyclinD1 (Thermofisher, PR8064A),” for “nM CDK6/CyclinD3 (Carna, 04-107),”
as §2

[1] = tested on: phosphorylation of Retinoblastoma Protein (pRb Ser807/811 or Ser780) in T47D cells; test: Inhibition of phosphorylation of retinoblastoma protein (pRb) in T47D cell (ELISA); type: cell-based, human; conditions: read-out: Phospho T47D Ser807 IC50
Method: T47D breast cancer cells from American Type Culture Collection (ATCC, HTB-133) were plated at 40,000 cells/well in 96-well plates, and were incubated in RPMI 1640 medium (Gibco, 31800105) with 10% Fetal Bovine Serum (FBS, Biowest, FB-1058). Cells were then allowed to adhere overnight at 37° C., 5% CO2. The following day, compounds were titrated in a 3-fold dilution scheme, and the highest compound concentration tested was […]. After 24 hours incubation with compounds, cells were lysed in ice-cold lysis buffer containing phosphatase inhibitor cocktail and 1 mM PMSF. Cell lysates (50 μL/well) were then transferred to ELISA plates (pRb Ser807/811 ELISA kit, Cell Signaling, 13152 or pRb Ser780 ELISA kit, Cell Signaling, 13016)). Plates were incubated overnight at 4° C., with constant slow speed shaking. After incubation, plates were washed following manufacturer's recommendations, and then 100 μL reconstituted detection antibody was added to each well and incubated for 1 hour at 37° C. After incubation, plates were washed, and then 100 μL reconstituted HRP-linked secondary antibody was added to each well and incubated for 30 mins at 37° C. […] Plates were read on the Envision plate reader (PerkinElmer, 2104-0010) using the 96-well […] mode. IC50 values were calculated using 4 parameter sigmoidal dose-response model of Xlfit5/GraphPad Prism 5 software. […]

SMILES | IC50 (CDK6/CyclinD3) [nM] | IC50 (CDK2/CyclinE1) [nM] | IC50 (T47D breast cancer cells) [nM] | IC50 (CDK4/CyclinD1) [nM] | IC50 [1] [nM]
CC(C)c1cnn2ccc(-c3nc(Nc4ccc(N5CCN(S(C)(=O)=O)CCC5=O)cn4)ncc3F)cc12 | 10 to 100 | 10 to 100 | < 100 | < 10 | < 100
CC(C)n1cnc2c(F)nc(-c3ccnc(Nc4ccc(N5CCC(C6CC(F)C6)CC5=O)cn4)n3)cc21 (stereo not shown) | 10 to 100 | 10 to 100 | < 100 | < 10 | < 100
